Laboratory results taken from patent US20250313533A1, “QUINOLINE CARBOXYLIC ACID ESTER COMPOUND AND PREPARATION METHOD AND USE THEREOF” (priority 2019, published 2025).

Experiments:
[1] = system: bacterial blight in rice; settings: spray before inoculation
[2] = system: bacterial angular leaf spot in cucumbers; settings: in vivo

Compound: [Cu+2].[O-]c1cccc2cccnc12.[O-]c1cccc2cccnc12 [oxine-copper, reference compound]
- efficacy against bacterial blight in rice ([1]; dosage 5 ppm): 6%
- efficacy against bacterial blight in rice ([1]; dosage 10 ppm): 10%
- efficacy against bacterial angular leaf spot in cucumbers [2]: 15% and 10%

Several values for one entry are separate records, joined by “and”; a condition that tells them apart may be missing. Equal entries are not always repeated. Where two headings read alike, the source gives them in different places.
